Values of other authors in patent publication US20250170078A1, “STABLE PHARMACEUTICAL COMPOSITIONS OF HYDROXYUREA” (Slayback Pharma LLC., priority 2022, published 2025).

Tested on: rat
Details: compared with hydroxycarbamide (hydroxyurea)

## NC(=O)NOC(N)=O [carbamoyloxyurea]
  risk in rat toxicology studies: does not pose a risk over and above hydroxycarbamide
